ChEMBL document CHEMBL4130443, “Targeting breast cancer stem cells by novel HDAC3-selective inhibitors” (Eur J Med Chem, 2017)

Tests used:
MDA-MB-231 [1] = test: Inhibition of colony formation of human MDA-MB-231 cells incubated for 48 hrs by crystal violet staining based assay; type: functional, cell-based
MDA-MB-231 [2] = test: Inhibition of mammosphere formation of human MDA-MB-231 cells incubated for 7 days; type: functional, cell-based

Row | Structure (SMILES) | inhibition (MDA-MB-231 [1]) | inhibition (MDA-MB-231 [2])
1 | Nc1cc(F)ccc1NC(=O)c1ccc(NC(=O)Cc2ccccc2)cc1 | Dose-dependent effect | Dose-dependent effect
2 | CC(C)(C(=O)Nc1ccc(C(=O)Nc2ccc(F)cc2N)cc1)c1ccccc1 | Dose-dependent effect | Dose-dependent effect
